One assay has as its target KRAS (G12D)::SOS1 (Homo sapiens (Human), UniProt P01116, G12D). Put plainly: KRAS::SOS1 AlphaScreen binding assay, KRAS G12D. The conditions noted are these: read-out: KRAS G12D IC50. The text has this: This assay can be used to examine the potency with which compounds according to the invention binding to (mutated) KRAS inhibit the protein-protein interaction between SOS1 and (mutated) KRAS e.g., KRAS WT, KRAS G12C, KRAS G12D, KRAS G12V, KRAS G13D. […] Low IC50 values in this assay setting are indicative of strong inhibition of protein-protein interaction between SOS1 and KRAS:
These assays measure the inhibitory effect of compounds on KRAS mutant protein-protein interactions using the Alpha Screen technology by Perkin Elmer. […]
Plates are kept at room temperature in a darkened incubator. After an additional 60 minutes incubation time the signal is measured in a PerkinElmer Envision HTS Multilabel Reader using the AlphaScreen specs from PerkinElmer. […]
As internal control known inhibitors of KRAS mutant::SOS1 interaction can be measured on each compound plate. […]
(In general: Alpha assays give light when donor and acceptor beads are brought close together.)

Amino acid sequences for entries named in this document (tags omitted). Chains listed by the source or under a name are the forms on record and can include a tag or linker. Residues count along the entry.
UniProt P01116, 1-164 with tags or gaps G12D limits assumed: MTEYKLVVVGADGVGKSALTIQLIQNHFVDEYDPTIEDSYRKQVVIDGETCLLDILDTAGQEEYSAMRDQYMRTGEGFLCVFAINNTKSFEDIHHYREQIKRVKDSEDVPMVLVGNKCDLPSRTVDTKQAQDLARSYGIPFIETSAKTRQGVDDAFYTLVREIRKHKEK

Assay [1] concerns KRAS G12D-dependent Ba/F3 cells. Put plainly: Ba/F3 proliferation assay, KRAS G12D. The conditions noted are these: read-out: KRAS G12D Ba/F3 IC50, 72 h, AlamarBlue. The method, then: Ba/F3 cells are ordered from DSMZ (ACC300, Lot17) and grown in RPMI-1640 (ATCC 30-2001)+10% FCS+10 ng/mL IL-3 at 37° C. in 5% CO2 atmosphere. Plasmids containing KRASG12 mutants (i.e. […], G12C, G12V) are obtained from GeneScript. To generate KRASG12-dependent Ba/F3 models, Ba/F3 cells are transduced with retroviruses containing vectors that harbor KRASG12 isoforms. Platinum-E cells (Cell Biolabs) are used for retrovirus packaging. Retrovirus is added to Ba/F3 cells. To ensure infection, 4 μg/mL polybrene is added and cells are spinfected. Infection efficiency is confirmed by measuring GFP-positive cells using a cell analyzer. Cells with an infection efficiency of 10% to 20% are further cultivated and puromycin selection with 1 μg/mL is initiated. As a control, parental Ba/F3 cells are used to show selection status. Selection is considered successful when parental Ba/F3 cells cultures died. […]
For proliferation assays, Ba/F3 cells are seeded into 384-well plates at 1.5×10^3 cells/60 μL in growth media (RPMI-1640+10% FCS). […] AlamarBlue™ (ThermoFisher), a viability stain, is added and fluorescence measured in the PerkinElmer Envision HTS Multilabel Reader. The raw data are imported into and analyzed with the Boehringer Ingelheim proprietary software MegaLab (curve fitting based on the program PRISM, GraphPad Inc.).

In the case of `Cc1ccncc1-c1cn(-c2cc(O[C@@H](C)[C@@H]3CCCN3C)nc(-c3noc4c3CCC[C@@]43CCCc4sc(N)c(C#N)c43)n2)nn1`, the IC50 at KRAS (G12D)::SOS1 was found to be 2 nM; in assay [1] it was 4 nM.

The record behind these values is patent publication US20240174690A1, “ANNULATED 2-AMINO-3-CYANO THIOPHENES AND DERIVATIVES FOR THE TREATMENT OF CANCER” (BOEHRINGER INGELHEIM INTERNATIONAL GMBH, priority 2021, published 2024).
